Laboratory results reported in patent publication US20030236457A1, “Method of endovascular brain mapping” (priority 2002, published 2003).

Assays:
rat brain = assay: Endovascular brain mapping: dye or embolic agent infused into the internal carotid artery, brains harvested to examine staining quality; type: in vivo, Sprague Dawley rats; conditions: ICA infusion after blood brain barrier disruption with arabinose, dye mixed with Omnipaque
[1] = Table 1; medium in which the fluorophore is solubilised; cited from earlier work
[2] = cited from earlier work

| Substance | staining of the selected vascular distribution of the brain (rat brain) | Solubility [1] | solubility in water [2] [mg/mL] |
| --- | --- | --- | --- |
| Fluorescein | staining was evident on the cortical surface; also recorded: good staining of a selective vascular distribution | DDs | – |
| 2-hydoxypropyl-γ-CD [HP-γ-CD] | – | – | 450 |

Entries after “also recorded” stand apart in the source; their conditions may differ.
